Test results taken from US7368570B2, “Organometallic complexes as singlet oxygen sensitizers” (University of Southern California, priority 2003, dated 2008).

Tests used:
[1] = from references (footnote e); cited from earlier work
solubility = format: physicochemical; settings: Table 3, not marked MeOD
Protocol: TPP in benzene or chloroform with OD 0.5-0.7 was used as blank/solvent solution to produce singlet oxygen. The intensity of ^1O2 luminescence signals was measured at 532 nm excitation in air-saturated solutions with a liquid nitrogen cooled germanium photodiode at 1268 nm. 0.02-0.5 mL quencher stock solution of Ir(III) complexes in […] was added to the blank solution. The decay trace of singlet oxygen was then re-measured, and the additions repeated 6-10 times. Singlet oxygen quenching rate constants by the Ir(III) complexes were obtained from the slopes of Stern Volmer plots (See FIG. 7).

Substance: iridium(III) bis(2-phenylbenzothiazolato-N, C^2)pyridyl chloride [BT-py]
- ΦPE quantum efficiency for emission in solution [1]: 0.2
- solubility remark (solubility): Not soluble
